The source of these data is BindingDB's records for doi:10.1016/j.ejmech.2013.04.007 (Astrazeneca, 2013).

Molecules are shown by their SMILES. pIC50: −log10 of the molar value.

The nature of the assay: Antagonist activity at P2Y12 receptor in human washed platelets assessed as inhibition of fibrinogen-induced aggregation.

One may read the pIC50 as the negative decadic logarithm of the IC50, by convention in mol/L. For the compound `CCOC(=O)c1cc(C#N)c(N2CC(NC(=O)NS(=O)(=O)c3ccc(Cl)s3)C2)nc1C`, the pIC50 is 8.02.
